In patent US20240083933A1, “DISACCHARIDES FOR TREATING BONE DISEASES” (UNIVERSITE DE PICARDIE JULES VERNE, priority 2020, published 2024):

What was measured:
HOb cells [1] = assay: Calcium assay (pro-calcifying activity, mineralization) on human primary osteoblastic cells; type: cell-based; conditions: 14 days, mineralizing conditions, BMP-2 100 ng/ml
Description: For all experiments, a mouse pre-osteoblastic cell line (MC3T3-E1, ATCC) and human primary osteoblastic cells (HOb, Promocell) were used. The mouse pre-osteoblastic cells were cultured in 75 cm^2 flasks, containing 15 mL of α-MEM medium (M4526, SIGMA) and 10% fetal calf serum (FCS), containing 1% Penicillin/Streptomycin antibiotics and 1% glutamine. Similarly, human HOb cells were cultured in 75 cm 2 flasks containing 15 mL of proliferation medium (Human Osteoblast Proliferation Medium, PromoCell). The cells are maintained in the oven at 37° C., with 5% CO2 and 90% humidity. The medium was changed every three days.
MC3T3-E1 cells were seeded in 6-well plates at 63,700 cells/well to be treated in order to extract RNA or for alkaline phosphatase enzymatic activity assay and in 48-well plates for the calcium assay at 5250 cells/well. The HOb cells were seeded at 182,000 cells/well in 6-well plates for the extraction of RNA or for the alkaline phosphatase enzymatic activity assay; at 15,000 cells/well in 48-well plates for the calcium assay; at 10,000 cells/well in 48-well plates for the MTT test or the WST-1 test and at 100,000 cells/well in 6-well plates for the protein extraction or for the fluorescence.
In order to induce the mineralization, the MC3T3-E1 cells were treated with α-MEM medium containing 5% FCS to which 10 mM of β-glycerophosphate and 50 μg/mL of ascorbic acid are added. […]

MC3T3-E1 cells = assay: Alkaline phosphatase (ALP) enzymatic activity assay, MC3T3-E1; type: cell-based, mouse; conditions: MC3T3-E1, 13 days post-treatment, BMP-2 100 ng/ml
Description: (§1) ALP is an enzyme synthesized by osteoblasts. It hydrolyses phosphoric esters which inhibit the mineralization by releasing a hydroxyl group and a phosphate. The osteoblasts produce matrix vesicles, reservoirs of alkaline phosphatases and ions, which, when released into the extracellular medium, would initiate the mineralization of the osteoid tissue by promoting the local concentrations of calcium ions and phosphates. Cells have been seeded in 6-well plates at 63700 cells/well for MC3T3-E1 and at 182000 cells/well for HOb. The assay has been performed on a 48-well plate after 13 days of treatment for MC3T3-Et cells and 7 days of treatment for the HOb cells using the BioVision Alkaline Phosphatase activity colorimetric assay Kit (ALP Assay Buffer, pNPP tablets, Alkaline phosphatase enzyme, Stop solution).
(§2) After the PBS rinses, 50 μl of ALP Assay Buffer were added to the wells, the bottom of the wells was scraped and then the 50 μl were taken. A centrifugation for 3 minutes at 13000 G was carried out to remove the insoluble material. […] The optical density was measured at 405 nm.
(§3) After the ALP enzymatic activity assay, a protein assay was performed in order to normalize the results of the ALP assay depending on the number of proteins. […] The optical density was measured at 565 nm to determine the amount of proteins.

HOb cells [2] = assay: Alkaline phosphatase (ALP) enzymatic activity assay, HOb; type: cell-based, human; conditions: 7 days post-treatment, BMP-2 100 ng/ml
Description: as §1, §2, §3

[3] = system: bone defects in the skull of rats; assay: Cranial bone defect model with implanted support; type: in vivo; design: key to BMD / BV/TV: =: no difference; N/A: not applicable; *p ≤ 0.05; **p ≤ 0.01; ***p ≤ 0.001
Description: The Sprague-Dawley rats are provided by Janvier Labs (Le Genest-Saint-Isle, France) and housed in the PLATAN animal facility of the UPJV. The rats were maintained under a 12-hour day-night cycle, at a temperature of 22±2° C. and 50% humidity.
In order to assess the osteoinductive capacity of the disaccharide via the acceleration of the phenomenon of bone reconstruction and to determine the concentration of the optimal DP2 molecule, and the nature of the most adapted support under the physiological conditions of the fracture consolidation operation (inflammatory reaction, cellular activity), 2 bone defects were made in the skull of rats.
Three different types of supports were tested and two different concentrations of DP2. For this, 102 8-week-old male Sprague-Dawley rats were divided into 12 experimental groups such as: • Support 1: Bioactive calcium phosphate bone substitute (MBCP: Biomaltante, Vigneux-de-Bretagne, France) • Group 1 (S1L1): MBCP support only • Group 2 (S1L2): MBCP support+DP2 [3 mM] • Group 3 (S1L3): MBCP support+DP2 [9 mM] • Group 4 (S1L4): MBCP support+BMP-2 • Support 2: bone substitute consisting of the mineral portion of a bone of bovine origin (Bio-oss; Roissy-en-France; France) • Group 5 (S2L5): Bio-oss support only • Group 6 (S2L6): Bio-oss Support+DP2 [3 mM] • Group 7 (S2L7): Bio-oss support+DP2 [9 mM] • Group 8 (S2L8): Bio-oss support+BMP-2 • Support 3: Type I collagen of the bovine Achilles tendon (Sigma) • Group 9 (S3L9): Collagen support only • Group 10 (S3L10): Collagen support+DP2 [9 mM] • Group 11 (S3L11): Collagen support+DP2 [9 mM] • Group 12 (S3L12): Collagen support+BMP-2
In order to reduce the number of used rats, two bone defects were made per rat; one defect was left blank and was used as an internal control for each rat. Thus, the support-only group is considered the control of the experiment. DP2 and BMP-2 were diluted in sterile saline solution and then mixed with the support and placed in the cranial defect. For the support-only condition, the latter is mixed with sterile saline solution.
After being assigned to one of the 12 groups shown above, the rat was anesthetized using IsoVet (isoflurane) in the mask (5% in the induction and 2 to 3% in maintenance dose). After 5 min, a nociception test was performed by pinching the paw or tail of the animal to check the effectiveness of the anesthesia. On the workstation, a shaving and a disinfection with vetedine were then carried out next to the incision.
A local anesthesia was also carried out with 7 mg/kg of 2% lidocaine (20 mg/mL) diluted to 5 mg/ml.
On the workstation, the incision of the skin with a 15 blade cold scalpel along the midline was performed, followed by the detachment of the subcutaneous tissues. Then, the incision along the midline and the lifting and lateral displacement of the periosteum were made. […] Saline solution was used during the milling steps. The implantation of the support, depending on the group, on the left side was made; the right side, without support, was used as a control to assess the effect of the lesion and the natural repair processes without the presence of support. The periosteum was put back in place and sutured with 7/0 skin suture. The skin was also put back in place and closed with 4/0 skin suture.
The rat was injected with buprenorphine at a dose of 0.05 mg/kg subcutaneously as an analgesic. After awakening, the rat was returned to its conventional housing conditions, by putting 1 rat per cage. The animals were supervised daily and animal welfare monitoring was carried out.

[4] = Bio-oss support + BMP-2 vs Bio-oss only, D 14
[5] = Bio-oss support + BMP-2 vs Bio-oss only, D 29
[6] = Bio-oss support + BMP-2 vs Bio-oss only, D 63
[7] = Bio-oss support + BMP-2 vs Bio-oss only, D 91
[8] = Collagen support + BMP-2 vs Collagen only, D 14
[9] = Collagen support + BMP-2 vs Collagen only, D 29
[10] = Collagen support + BMP-2 vs Collagen only, D 63
[11] = Collagen support + BMP-2 vs Collagen only, D 91
[12] = MBCP support + BMP-2 vs MBCP only, D 14
[13] = MBCP support + BMP-2 vs MBCP only, D 29
[14] = MBCP support + BMP-2 vs MBCP only, D 63
[15] = MBCP support + BMP-2 vs MBCP only, D 91

Q: Which “percentage of mineralization of the HOb cells” value (HOb cells [1]) does the source give for “BMP-2: bone morphogenic protein, osteoinductive endogenous glycoprotein; marketed as Inductos and Infuse Bone Graft (BMP2)” here?
A: The value was 214.153±37.938%.

Q: And the “ALP enzymatic activity relative to the mineralized medium alone (100%)” value (MC3T3-E1 cells)?
A: Its value is 307.645±30.440%.

Q: And the “ALP enzymatic activity relative to the mineralized medium alone (100%)” value (HOb cells [2])?
A: Its value is 262.567±46.207%.

Q: And the BMD [3, 4]?
A: Its BMD is “=”.

Q: What about the BV/TV [3, 4] of the same substance?
A: The BV/TV was “=”.

Q: What about the BMD [3, 5] of the same substance?
A: Its BMD is “=”.

Q: And the BV/TV [3, 5]?
A: Its BV/TV is “=”.

Q: What about the BMD [3, 6] of the same substance?
A: Its BMD is “=”.

Q: And the BV/TV [3, 6]?
A: The BV/TV was “=”.

Q: And the BMD [3, 7]?
A: The BMD was “=”.

Q: And the BV/TV [3, 7]?
A: The BV/TV was “=”.

Q: And the BMD [3, 8]?
A: Its BMD is “=”.

Q: What about the BV/TV [3, 8] of the same substance?
A: The BV/TV was “=”.

Q: What about the BMD [3, 9] of the same substance?
A: Its BMD is “=”.

Q: What about the BV/TV [3, 9] of the same substance?
A: Its BV/TV is “=”.

Q: And the BMD [3, 10]?
A: The BMD was “=”.

Q: What about the BV/TV [3, 10] of the same substance?
A: Its BV/TV is “=”.

Q: What about the BMD [3, 11] of the same substance?
A: The BMD was “=”.

Q: What about the BV/TV [3, 11] of the same substance?
A: The BV/TV was “=”.

Q: What about the BMD [3, 12] of the same substance?
A: Its BMD is “=”.

Q: And the BV/TV [3, 12]?
A: Its BV/TV is “=”.

Q: And the BMD [3, 13]?
A: Its BMD is “↑*”.

Q: And the BV/TV [3, 13]?
A: Its BV/TV is “=”.

Q: What about the BMD [3, 14] of the same substance?
A: Its BMD is “=”.

Q: And the BV/TV [3, 14]?
A: Its BV/TV is “=”.

Q: What about the BMD [3, 15] of the same substance?
A: Its BMD is “↑*”.

Q: What about the BV/TV [3, 15] of the same substance?
A: The BV/TV was “=”.

Q: What about the heterotopic bone formation ([3]; MBCP+BMP-2 group) of the same substance?
A: Its heterotopic bone formation is “forms heterotopic bone over time”.

Q: And the “continuous bone repair between the old bone and the newly formed bone” value ([3]; collagen support)?
A: Its value is “does not form a continuous bone repair”.
